Legend:
[1] = Metabolic stability in rat liver S9 fraction assessed as percent of compound remaining after 60 mins; assay type: ADME, tissue-based; conditions: read-out: Stability
[2] = Metabolic stability in human liver S9 fraction assessed as percent of compound remaining after 60 mins; assay type: ADME, tissue-based; conditions: read-out: Stability
[3] = Clearance in rat at 2 mg/kg, iv; assay type: ADME, organism-based; conditions: in vivo
[4] = Volume of distribution at steady state in rat at 2 mg/kg, iv; assay type: ADME, organism-based; conditions: in vivo, read-out: Vdss
[5] = Mean residence time in rat at 2 mg/kg, iv; assay type: ADME, organism-based; conditions: in vivo
[6] = Clearance in SCID mouse at 10 mg/kg, iv; assay type: ADME, organism-based; conditions: in vivo
[7] = Mean residence time in SCID mouse at 10 mg/kg, iv; assay type: ADME, organism-based; conditions: in vivo

| remaining at 1 h [1] | remaining at 1 h [2] | clearance [3] | Vd [4] | MRT [5] | clearance [6] | MRT [7] | SMILES |
| --- | --- | --- | --- | --- | --- | --- | --- |
| 80% | 90% | 50.8 mL/min/kg | 3.9 L/kg | 1.3 h | 31.6 mL/min/kg | 0.59 h | COc1cc(C(=O)NCCO)ccc1Nc1nc(OC2CCCC2)c2c(-c3ccc4nc(C)oc4c3)c[nH]c2n1 |
| 63% | 75% | 11.4 mL/min/kg | 1.5 L/kg | 2.5 h | 10.4 mL/min/kg | 3.1 h | CNC(=O)c1ccc(Nc2nc(OC3CC3)c3c(-c4ccc5nc(C)oc5c4)c[nH]c3n2)c(OC)c1 |
| 87% | 79% | 61.3 mL/min/kg | 4 L/kg | 1.1 h | 63.1 mL/min/kg | 0.36 h | CNC(=O)c1ccc(-c2c[nH]c3nc(Nc4ccc(C(=O)NC)cc4OC)nc(OC4CCCC4)c23)cc1 |

Source: ChEMBL document CHEMBL4028873, “The Discovery of a Dual TTK Protein Kinase/CDC2-Like Kinase (CLK2) Inhibitor for the Treatment of Triple Negative Breast Cancer Initiated from a Phenotypic Screen” (J Med Chem, 2017)
